The target in the test is human Edg-1(S1P1) (Homo sapiens, UniProt P21453). Nature of the test: Cell system binding test: inhibition of [3H]-S1P binding to Edg-1(S1P1) gene transferred HEK-293 cells. The following applies: read-out: Kd of binding to human Edg-1(S1P1) gene transferred HEK-293 cell strain; radioligand binding, whole cells; tested as the radiolabelled form. The protocol:
Using a human Edg-1(S1P1) gene transferred HEK-293 cell strain (showing a binding of Kd=6.4±2.1 nM, Bmax=160±94 fmol/10^5 cells to [^3H]-S1P), which had been obtained by a method complying with the method described in the literature (Science. 1998, 279:1552), the Edg-1(S1P1) binding inhibiting effect of the compound of the present invention was investigated in accordance with the method described in the literature. Cells (1×10^5 cells/well) obtained as described above were seeded in poly-L-lysine-coated 96-well plates (Corning Incorporated), and then incubated in a 5% carbon dioxide gas incubator for 12 hours at 37° C. with the use of an MEM medium (Invitrogen Corporation) containing 100 U/mL of penicillin, 100 μg/mL of streptomycin, a 1% MEM nonessential amino acid solution, and 10% FCS. […]
The same procedure was performed in the absence of the test compound, and the amount (B) of binding of [^3H]-S1P was calculated. Moreover, the same procedure was performed in the absence of the test compound with the use of HEK-293 cells, to which the Edg-1(S1P1) gene had not been transferred, and the background amount (C) of binding of [^3H]-S1P was calculated. […]

The chains behind the UniProt entries cited, without tags or fusion partners.
UniProt P21453, whole entry: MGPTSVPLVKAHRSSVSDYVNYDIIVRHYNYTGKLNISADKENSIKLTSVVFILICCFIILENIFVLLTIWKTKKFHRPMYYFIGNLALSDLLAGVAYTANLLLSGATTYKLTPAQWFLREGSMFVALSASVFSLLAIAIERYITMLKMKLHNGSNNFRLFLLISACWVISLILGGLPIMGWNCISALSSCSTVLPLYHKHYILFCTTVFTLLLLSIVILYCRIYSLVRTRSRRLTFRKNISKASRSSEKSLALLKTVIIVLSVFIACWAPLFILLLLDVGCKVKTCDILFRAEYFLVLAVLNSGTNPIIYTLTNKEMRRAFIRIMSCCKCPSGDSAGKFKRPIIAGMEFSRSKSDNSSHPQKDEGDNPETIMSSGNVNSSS

As usually defined, the Kd is the free concentration of one partner at which half of the binding sites on the other are occupied at equilibrium, for simple one-to-one binding. Take `CCCCCCCCCCCCC/C=C/[C@@H](O)[C@@H](N)COP(=O)(O)O`: the equilibrium dissociation constant (Kd) turned out to be 6.4 nM.
